# Measured values as given in patent EP0363041A1 (priority 1988, dated 1990).
# Some compounds may have been tested in ways that are not shown here.
# Legend:
# Details in all cases: morphine = 100; competitive ELISA on NM-BSA
# [1] = system: MO-2
# [2] = system: MO-4
# [3] = system: MO-5
# [4] = system: MO-6
# [5] = system: MO-3
smiles,measurement,setting,value
CCC(=O)N(c1ccccc1)C1CCN(CCc2ccccc2)CC1,"reactivity ratio with morphine, MO-2",[1],< 1.0
same,"reactivity ratio with morphine, MO-4",[2],< 0.001
same,"reactivity ratio with morphine, MO-5",[3],< 0.001
same,"reactivity ratio with morphine, MO-6",[4],< 0.1
same,"reactivity ratio with morphine, MO-3",[5],< 0.01
